Measured values from patent publication US20030206891A1, “Rapamycin-based biological regulation” (ARIAD Gene Therapeutics, Inc., priority 1995, published 2003).

Protein sequences, listed by entry. Tags and fused reporters are not part of them. Lines headed by an entry give the natural chain unless they say otherwise; changes in a name come on top.
UniProt P62942: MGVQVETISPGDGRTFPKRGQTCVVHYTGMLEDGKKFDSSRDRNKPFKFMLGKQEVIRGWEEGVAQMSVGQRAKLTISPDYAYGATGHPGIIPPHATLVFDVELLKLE

Columns and labels:
[1] = biological target: ZFHD1-3FKBP and 1FRB-p65(361-550) stably integrated in HT1080 cells (Homo sapiens, UniProt P42345+P62942); test: Rapamycin-dependent SEAP production in stably transfected HT1080 cell lines (HT20-6 clone, HT23 pool); assay type: cell-based
[2] = biological target: ZFHD1-3FKBP and 1FRB-p65(361-550) fusion proteins in HT1080 cells (Homo sapiens, UniProt P42345+P62942); test: Rapamycin-dependent SEAP transcriptional activation in transiently transfected HT1080 cells; assay type: cell-based

CO[C@H]1C[C@@H]2CC[C@@H](C)[C@@](O)(O2)C(=O)C(=O)N2CCCC[C@H]2C(=O)O[C@H]([C@H](C)C[C@@H]2CC[C@@H](O)[C@H](OC)C2)CC(=O)[C@H](C)/C=C(\C)[C@@H](O)[C@@H](OC)C(=O)[C@H](C)C[C@H](C)/C=C/C=C/C=C/1C [rapamycin, Rapamycin]
SEAP production in pool of clones with bicistronic vector ([1]; HT23 pool, FIG. 4D): rapamycin-dependent SEAP production with no detectable background | SEAP activity ([1]; stable clone, extended SEAP assay, at 1100 nM rapamycin): over 90,000 arbitrary fluorescence units | rapamycin concentration at which SEAP secretion was detectable (as low as) ([2]; transiently transfected HT1080, 24 hours, FIG. 4A): 0.5 nM | rapamycin concentration of peak SEAP secretion ([2]; transiently transfected HT1080, FIG. 4A): 5 nM
